“And” between values parts separate entries of the source, which are not always exact repeats. Equal values may be shown once. Where a name gives a salt, the structure may show the parent alone. Read-outs that look alike come from different tables or passages of the source.
Tests used:
Assay type in all cases: cell-based
α2A adrenoceptor [1] = molecular target: T1, α2A adrenoceptor (Homo sapiens, UniProt P08913); experiment: G protein activation BRET assay in transfected HEK-293T cells
α2C adrenoceptor = α2C adrenoceptor (Homo sapiens, UniProt P18825); experiment: as above
α2A adrenoceptor [2] = molecular target: T1, α2A adrenoceptor; experiment: DMR label-free assay in CHO cells transfected with α2A-RLuc8 receptor
α2A adrenoceptor [3] = molecular target: T1, α2A adrenoceptor; experiment: ERK1/2 phosphorylation in CHO cells transfected with α2A-RLuc8 receptor
[4] = Potency (EC50) G protein activation

Amino acid sequences for entries named in this document (tags omitted).
UniProt P08913, whole entry: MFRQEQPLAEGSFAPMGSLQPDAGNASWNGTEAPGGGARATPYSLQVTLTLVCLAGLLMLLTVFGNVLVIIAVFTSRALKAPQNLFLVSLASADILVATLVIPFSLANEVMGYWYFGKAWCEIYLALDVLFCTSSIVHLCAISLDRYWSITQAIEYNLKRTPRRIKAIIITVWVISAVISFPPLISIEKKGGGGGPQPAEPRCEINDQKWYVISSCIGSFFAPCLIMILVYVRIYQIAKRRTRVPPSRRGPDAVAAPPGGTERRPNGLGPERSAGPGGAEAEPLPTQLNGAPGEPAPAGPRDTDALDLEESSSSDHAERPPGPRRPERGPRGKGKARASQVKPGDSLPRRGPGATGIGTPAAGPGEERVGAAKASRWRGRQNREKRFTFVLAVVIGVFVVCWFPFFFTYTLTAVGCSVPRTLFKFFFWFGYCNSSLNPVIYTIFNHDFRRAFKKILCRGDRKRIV
UniProt P18825, whole entry: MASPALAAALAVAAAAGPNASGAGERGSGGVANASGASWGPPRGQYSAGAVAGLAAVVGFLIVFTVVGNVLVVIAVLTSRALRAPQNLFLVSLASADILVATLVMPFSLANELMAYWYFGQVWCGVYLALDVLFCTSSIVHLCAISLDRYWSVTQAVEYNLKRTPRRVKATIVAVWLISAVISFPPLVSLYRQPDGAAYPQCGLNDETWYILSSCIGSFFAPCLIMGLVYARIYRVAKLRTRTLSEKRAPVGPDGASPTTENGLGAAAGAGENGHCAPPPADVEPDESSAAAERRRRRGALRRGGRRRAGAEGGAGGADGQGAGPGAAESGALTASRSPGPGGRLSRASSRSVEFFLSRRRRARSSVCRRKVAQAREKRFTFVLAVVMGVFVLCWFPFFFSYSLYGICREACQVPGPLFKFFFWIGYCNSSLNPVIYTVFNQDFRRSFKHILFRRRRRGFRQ

**Q.** With `CCCN1CCC[C@@H]2Cc3n[nH]cc3C[C@H]21` [Quinpirole, (-) quinpirole hydrochloride] as the compound, how does the “Efficacy (Emax) G protein activation” value (α2A adrenoceptor [1]) read?
**A.** The value was 78 ± 9 percentage of NE values and 72 ± 8 percentage of NE values and 70 ± 2 percentage of NE values and 47 ± 8 percentage of NE values and 40 ± 9 percentage of NE values.

**Q.** And the EC50 (α2A adrenoceptor [1]; [4])?
**A.** Its EC50 is 1.3 µM and 820 nM and 700 nM (2×) and 1 µM.

**Q.** What about the EC50 (α2C adrenoceptor) of the same compound?
**A.** The EC50 was 100 nM.

**Q.** What about the EC50 (α2C adrenoceptor; [4]) of the same compound?
**A.** The EC50 was 400 nM and 200 nM.

**Q.** What about the EC50 (α2C adrenoceptor; read-out: Potency (EC50) G protein activation) of the same compound?
**A.** The EC50 was 230 ± 50 nM.

**Q.** And the DMR response (α2A adrenoceptor [2])?
**A.** The DMR response was “significant response”.

**Q.** What about the “MAPK activation (ERK1/2 phosphorylation)” value (α2A adrenoceptor [3]) of the same compound?
**A.** The value was “able to produce MAPK activation”.

Source: PMC6143434 (Molecular neurobiology, 2018)
